Data: paper PMC6269003, “Two New Coumarins from Micromelum falcatum with Cytotoxicity and Brine Shrimp Larvae Toxicity” (Molecules, 2012)

System: brine shrimp larvae
Conditions: 96 well plates, 24 h incubation
Procedure: According to the method described by Wanyoike, brine shrimp eggs (Ocean Star International, Inc., USA) were hatched in a large beaker containing natural sea water (South China Sea) and they were cultured at room temperature for 48 h. With the help of a light source, the larvae grouped together on one side of the vessel and were easily collected for the assay. […] Each test was processed in triplicate with approximate ten larvae. Brine shrimps were counted under a magnifying glass after 24 h of incubation and maintaining the 96 well plates under illumination. The controls were prepared in the same manner except that the test samples were omitted.

microfalcatin isovalerate [Compound 14]
LD50 (brine shrimp): 257.4 µg/mL
